The source of these data is patent US11814447B2, “Peptide ligands for binding to EphA2” (BICYCLERD LIMITED, priority 2018, dated 2023).

Chains of the proteins cited; added tags and fusions are not shown. Residues count along the entry.
UniProt P29317, 24-537 limits assumed: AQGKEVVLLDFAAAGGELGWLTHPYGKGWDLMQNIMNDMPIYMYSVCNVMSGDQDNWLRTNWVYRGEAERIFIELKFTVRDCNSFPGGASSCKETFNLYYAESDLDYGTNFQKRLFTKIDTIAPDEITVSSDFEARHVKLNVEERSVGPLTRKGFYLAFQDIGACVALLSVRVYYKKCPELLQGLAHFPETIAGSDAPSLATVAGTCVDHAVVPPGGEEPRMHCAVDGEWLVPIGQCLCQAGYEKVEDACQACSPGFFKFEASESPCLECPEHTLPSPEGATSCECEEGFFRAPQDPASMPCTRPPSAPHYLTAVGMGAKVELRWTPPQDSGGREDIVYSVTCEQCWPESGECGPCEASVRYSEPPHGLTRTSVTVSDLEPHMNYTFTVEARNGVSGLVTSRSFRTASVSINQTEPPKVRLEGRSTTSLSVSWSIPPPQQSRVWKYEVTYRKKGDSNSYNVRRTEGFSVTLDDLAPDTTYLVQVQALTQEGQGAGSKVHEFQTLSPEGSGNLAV
UniProt Q03145, 26-538 limits assumed: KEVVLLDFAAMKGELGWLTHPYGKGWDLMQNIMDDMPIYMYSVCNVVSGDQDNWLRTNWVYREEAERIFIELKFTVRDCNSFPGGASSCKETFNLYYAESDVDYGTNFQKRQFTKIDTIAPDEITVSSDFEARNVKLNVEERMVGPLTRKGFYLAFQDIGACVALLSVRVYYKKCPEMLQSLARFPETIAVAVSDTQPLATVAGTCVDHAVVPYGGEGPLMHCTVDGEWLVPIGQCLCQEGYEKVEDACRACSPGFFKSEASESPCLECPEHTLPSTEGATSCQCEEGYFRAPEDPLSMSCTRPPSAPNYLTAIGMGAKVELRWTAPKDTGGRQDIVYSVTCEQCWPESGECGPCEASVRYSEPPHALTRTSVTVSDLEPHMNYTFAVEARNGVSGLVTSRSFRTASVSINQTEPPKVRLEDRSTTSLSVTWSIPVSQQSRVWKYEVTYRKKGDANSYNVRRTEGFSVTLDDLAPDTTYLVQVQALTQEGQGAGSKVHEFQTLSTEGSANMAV

Where two headings read alike, the source gives them in different places.

Assay [1] deals with T1, Human EphA2 (Homo sapiens, UniProt P29317).
The target of assay [2] is T1, Human EphA2. Description: Fluorescence polarisation direct binding assay. Also on record: EphA2 (Ecto); polyHis (C). Conditions: read-out: KD, nM ± 95% CI Human EphA2. On the technique in general: In fluorescence polarisation assays a small probe gives low polarisation when free and higher when bound to something large.
The target in another assay is T2, Mouse EphA2 (Mus musculus, UniProt Q03145).
T2 construct: EphA2 (Ecto); Fc fusion (R&D 639-A2) OR C-terminal polyHis (Sino Biological 50586-M08H); purchased R&D Systems or Sino Biological 639-A2 or 50586-M08H
Description: Fluorescence polarisation direct binding assay. Conditions: Table 7; read-out: KD, nM ± 95% CI Mouse EphA2.

The mark [3] stands for this setting: read-out: measured affinity (Ki) to EphA2, Examples 1-6 and Reference Examples 1-2, species and fluorescent peptide not stated.

One may read the Ki as the dissociation constant of the complex between target and ligand, obtained from inhibition or displacement. For the substance “(β-Ala)-Sar10-ACWAPFWCAVNRPGC [Compound 303]”, at Human EphA2 [1] (read-out: Ki, nM ± 95% CI Human EphA2 Fluorescent peptide Compound 18, Table 9, Ala scan peptides, fluorescent peptide Compound 18), the Ki was greater than 1000 nM.
The Kd is the equilibrium constant for the complex coming apart. Turning to “AF488-(β-Ala)-Sar10-ACPWAPFWCAVNRPGC [Compound 307]”, the Kd on Human EphA2 [2] (Table 10, Ala scan peptides) is greater than 1000 nM.
As for “AF488-(β-Ala)-Sar10-H(D-Asp)(C5g)P-C(Aib)(1Nal)G(Aib)F(1Nal)CP(tBuGly)NR(Aib)(D-Asp)C [Compound 146]”, the Kd at Human EphA2 [2] (Table 7) was 2.19 nM.
Consider “AF488-(β-Ala)-Sar10-H(D-Asp)(C5g)P-CP(1Nal)G(Aib)F(1Nal)CP(tBuGly)N(HArg)P(D-Asp)C [Compound 147]”, for which the results for the Kd at Mouse EphA2 and on Human EphA2 [2] (Table 7) were 3.44 ± 1.31 nM and 1.07 ± 0.9 nM, respectively.
“AF488-(β-Ala)-Sar10-H(D-Asp)VP-C(Aib)(1Nal)G(Aib)F(1Nal)CP(tBuGly)N(HArg)P(D-Asp)C [Compound 140]”: the Kd on Mouse EphA2 is 4.55 ± 1.04 nM; at Human EphA2 [2] (Table 7) it was 2.05 ± 0.62 nM.
On to “AF488-(β-Ala)-Sar10-H(D-Asp)VP-C(Aib)(1Nal)G(Aib)F(1Nal)CP(tBuGly)NR(Aib)(D-Asp)C [Compound 141]”, for which the Kd on Mouse EphA2 was 6.5 ± 0.63 nM; on Human EphA2 [2] (Table 7), 2.65 ± 0.64 nM.
For “AF488-(β-Ala)-Sar10-H(D-Asp)VP-CP(1Nal)G(Aib)F(1Nal)CP(tBuGly)N(HArg)P(D-Asp)C [Compound 143]”, the Kd turned out to be 4.69 ± 4.15 nM at Mouse EphA2 and 1.4 ± 1.46 nM at Human EphA2 [2] (Table 7).
As for “AF488-(β-Ala)-Sar10-H(D-Asp)VP-CP(1Nal)G(Aib)F(1Nal)CP(tBuGly)NR(Aib)(D-Asp)C [Compound 145]”, the Kd at Mouse EphA2 is 3.8 ± 0.55 nM; at Human EphA2 [2] (Table 7), 2.17 ± 2.08 nM.
In the case of “AF488-(β-Ala)-Sar10-H(D-Asp)VP-CP(1Nal)G(Aib)F(1Nal)CP(tBuGly)NR(Aib)GC [Compound 144]”, the Kd on Mouse EphA2 came to 2.56 nM; at Human EphA2 [2] (Table 7), 1.04 nM.
Consider “AF488-(β-Ala)-Sar10-H(D-Asp)VPCP(1Nal)A(Aib)F(1Nal)CA(tBuGly)NR(Aib)(D-Asp)C [Compound 308]”, for which the Kd on Human EphA2 [2] (Table 10, Ala scan peptides) was greater than 2000 nM.
Turning to “AF488-(β-Ala)-Sar10-H(D-Asp)VPCPWGPFWCPVNRPGCA [Compound 139]”, the dissociation constant Kd was 0.8 ± 0.54 nM on Mouse EphA2 and 0.31 ± 0.18 nM at Human EphA2 [2] (Table 7).
As for “Sar2-ACP(1Nal)G(Aib)FWCP(tBuGly)NR(Aib)GC [Compound 137]”, the Ki at Human EphA2 [1] (read-out: Ki, nM ± 95% CI Human EphA2 Fluorescent Peptide Compound 18, Table 6, fluorescent peptide Compound 18) was 20 nM; at Human EphA2 [1] (read-out: Ki, nM ± 95% CI Human EphA2 Fluorescent Peptide Compound 66, Table 6, fluorescent peptide Compound 66), 18 nM.
Turning to “[Ac][B-Ala][Sar]10H[dD]VPCPWGPFW[Dap]PVNRPG[Dap] [Example 2]”, at Human EphA2 [1] (setting [3]), the Ki stood at 604 nM.
Same read-out and setting: in the case of “[Ac][B-Ala][Sar]10H[dD]VP[Dap]PWGPFWCPVNRPG[Dap] [Example 3]” it was 31.5 nM; in that of “[B-Ala][Sar]10H[dD]VP [Dap][Aib][Mal]G[Aib]F [1Nal]CP [tBuGly]N[HArg]P [dD][Dap] [Example 6]”, 17 nM; in that of “[B-Ala][Sar]10H[dD]VPC[Aib][Mal]G[Aib]F[1Nal][Dap]P[tBuGly]N[HArg]P[dD][Dap] [Example 5]”, 425 nM.
Consider “[B-Ala][Sar]10H[dD]VP[Dap][Aib][Mal]G[Aib]F[1Nal][Dap]P[tBuGly]N[HArg]P[dD]C [Example 4]”, for which the Ki on Human EphA2 [1] (setting [3]) was 640 nM.
